Data published in EP1903056A2, “HLA-A1, -A2 -A3, -A24, -B7, and -B44 tumor associated antigen peptides and compositions” (priority 2002, dated 2004).

What was measured:
[1] = system: A3 supertype family (A*0301, A*1101, A*3101, A*3301, and A*6801); experiment: A3 supertype cross-binding (alleles bound); set-up: species or system human; details: Table 16a
B*4403 = B*4403 (Homo sapiens, UniProt P01889, A223V/A65T/A93T/A95T/D201E/D98Y/E176V/E187L/E204Q/E69K/G107R/H137Y/K202T/L105A/L119I/N104T/N87E/Q56L/Q94N/R106L/R155S/R180L/S101N/S121R/S35A/S48T/T118I/V36M/W191S/Y140D/Y91S); experiment: B44 supertype peptide binding, B*4403; details: Her2/neu-derived B44 peptides; read-out: B* 4403
B*4002 (B61) = B*4002 (B61) (Homo sapiens, UniProt P01889, A65T/A93T/A95T/D138N/D201E/D98Y/E176V/E204Q/E69K/K202T/N87E/Q56L/Q94N/R180L/S48T/Y33H/Y91S); experiment: B44 supertype peptide binding, B*4002; details: Her2/neu-derived B44 peptides; read-out: B* 4002
B*4001(B60) = B*4001(B60) (Homo sapiens, UniProt P01889, A65T/A93T/A95T/D138N/D98Y/E176V/E69K/N87E/Q56L/Q94N/R180L/S121R/S35A/S48T/T167S/V36M/W171L/Y33H/Y91S); experiment: B44 supertype peptide binding, B*4001; details: Her2/neu-derived B44 peptides; read-out: B* 4001
[2] = system: B44 supertype (B*1801, B*4001, B*4002, B*4402, B*4403, B*4501); experiment: B44 supertype cross-binding (degeneracy, number of alleles bound); set-up: species or system human; details: number of the six B44 supertype alleles bound
B*1801 = B*1801 (Homo sapiens, UniProt P01889, A329T/A93T/A95T/C349S/D201E/D54G/D98Y/E176V/E187T/E204Q/E69T/K202T/Q94N/R155S/R180L/S121R/V306I/Y140S/Y195H/Y33H/Y91S); experiment: B44 supertype peptide binding, B*1801; details: Her2/neu-derived B44 peptides
B*4402 = B*4402 (Homo sapiens, UniProt P01889, A223V/A65T/A93T/A95T/D201E/D98Y/E176V/E187L/E204Q/E69K/G107R/H137Y/K202T/L105A/L119I/N104T/N87E/Q56L/Q94N/R106L/R155S/R180D/S101N/S121R/S35A/S48T/T118I/V36M/W191S/Y140D/Y91S); experiment: B44 supertype peptide binding, B*4402; details: Her2/neu-derived B44 peptides; read-out: B* 4402
B*4501 = B*4501 (Homo sapiens, UniProt P01889, A329T/A65T/A93T/A95T/C349S/D138N/D201E/D98Y/E176V/E187L/E204Q/E69K/H137Y/K202T/L119W/N87E/Q56L/Q94N/R155S/R180D/S121R/S35A/S48T/V127L/V306I/V36M/W191S/Y140L/Y33H/Y91S); experiment: B44 supertype peptide binding, B*4501; details: Her2/neu-derived B44 peptides; read-out: B* 4501

| Number of A3 alleles crossbound [1] | IC50 (B*4403) [µM] | IC50 (B*4002 (B61)) [µM] | IC50 (B*4001(B60)) [µM] | Degeneracy [2] | IC50 (B*1801) [µM] | IC50 (B*4402) [µM] | IC50 (B*4501) [µM] | SMILES |
| --- | --- | --- | --- | --- | --- | --- | --- | --- |
| 3 |  |  |  |  |  |  |  | CC[C@H](C)[C@H](NC(=O)[C@@H](N)[C@@H](C)O)C(=O)N[C@@H](CO)C(=O)N1CCC[C@H]1C(=O)N[C@@H](CC(C)C)C(=O)N[C@@H](CC(N)=O)C(=O)N[C@H](C(=O)N[C@@H](CO)C(=O)N[C@@H](Cc1ccc(O)cc1)C(=O)N[C@@H](CCCNC(=N)N)C(=O)O)[C@@H](C)O [CEA241] |
|  | 0.658 | > 10 | > 10 | 0 | 5.25 | > 10 | 15.1 | C[C@H](NC(=O)CNC(=O)[C@H](Cc1ccccc1)NC(=O)[C@@H](NC(=O)[C@H](Cc1ccc(O)cc1)NC(=O)[C@H](CCCNC(=N)N)NC(=O)CNC(=O)[C@H](CCC(=O)O)NC(=O)[C@@H]1CCCN1)[C@@H](C)O)C(=O)O [compound 576] |
|  | 1.17 | > 10 | 11.5 | 0 | 14.5 | > 10 | 4.42 | C[C@H](NC(=O)[C@@H]1CCCN1C(=O)[C@H](CC(=O)O)NC(=O)CNC(=O)[C@H](CC(=O)O)NC(=O)[C@H](Cc1ccccc1)NC(=O)[C@H](CO)NC(=O)[C@H](CCC(=O)O)NC(=O)[C@@H]1CCCN1)C(=O)O [compound 577] |
|  | 4.66 | > 10 | 11.6 | 0 | 1.8 | 5.81 | 9.32 | CC(C)C[C@H](NC(=O)[C@H](CCC(N)=O)NC(=O)[C@H](CCC(=O)O)NC(=O)[C@@H]1CCCN1)C(=O)N[C@@H](CCC(N)=O)C(=O)N[C@H](C(=O)N[C@@H](Cc1ccccc1)C(=O)N[C@@H](CCC(=O)O)C(=O)N[C@H](C(=O)O)[C@@H](C)O)C(C)C [compound 578] |
|  | 3.23 | > 10 | 5.39 | 0 | 9.15 | > 10 | > 10 | CC[C@H](C)[C@H](NC(=O)[C@H](CCC(=O)O)NC(=O)[C@H](CCC(=O)O)NC(=O)[C@H](CC(C)C)NC(=O)[C@@H](NC(=O)[C@H](CCC(=O)O)NC(=O)[C@H](Cc1ccccc1)NC(=O)[C@@H](NC(=O)[C@H](CCC(N)=O)NC(=O)[C@H](CC(C)C)NC(=O)[C@H](CCC(N)=O)NC(=O)[C@H](CCC(=O)O)NC(=O)[C@@H]1CCCN1)C(C)C)[C@@H](C)O)C(=O)O [compound 580] |
|  | 0.753 | 8.71 | 14.2 | 0 | 1.75 | 10.3 | > 10 | CC[C@H](C)[C@H](NC(=O)[C@H](CCC(=O)O)NC(=O)[C@H](CCC(=O)O)NC(=O)[C@H](CC(C)C)NC(=O)[C@@H](NC(=O)[C@H](CCC(=O)O)NC(=O)[C@@H](N)Cc1ccccc1)[C@@H](C)O)C(=O)N[C@H](C(=O)NCC(=O)O)[C@@H](C)O [compound 581] |
|  | 0.989 | 11.5 | 17.6 | 0 | 8.59 | > 10 | > 10 | CC[C@H](C)[C@H](NC(=O)[C@H](CCC(=O)O)NC(=O)[C@H](CCC(=O)O)NC(=O)[C@@H](N)CC(C)C)C(=O)N[C@H](C(=O)NCC(=O)N[C@@H](Cc1ccc(O)cc1)C(=O)O)[C@@H](C)O [compound 582] |
|  | 5.34 | > 10 | 13.5 | 0 | 1.05 |  | > 10 | CC[C@H](C)[C@H](NC(=O)[C@H](CCC(=O)O)NC(=O)[C@H](CCC(=O)O)NC(=O)[C@@H](N)CC(C)C)C(=O)N[C@H](C(=O)NCC(=O)N[C@@H](Cc1ccc(O)cc1)C(=O)N[C@@H](CC(C)C)C(=O)N[C@@H](Cc1ccc(O)cc1)C(=O)O)[C@@H](C)O [compound 583] |
|  | 0.559 | 0.647 | 0.931 | 0 | 11.8 | 7.33 | > 10 | CC(C)[C@H](NC(=O)[C@H](CS)NC(=O)[C@H](CCC(=O)O)NC(=O)[C@H](CC(=O)O)NC(=O)[C@H](CCC(=O)O)NC(=O)[C@@H]1CCCN1)C(=O)NCC(=O)N[C@@H](CCC(=O)O)C(=O)NCC(=O)O [compound 585] |
|  | 1.93 | > 10 | > 10 | 0 | 6.69 | 4.22 | > 10 | CC(C)C[C@H](NC(=O)CNC(=O)[C@H](CCC(=O)O)NC(=O)CNC(=O)[C@@H](NC(=O)[C@H](CS)NC(=O)[C@H](CCC(=O)O)NC(=O)[C@H](CC(=O)O)NC(=O)[C@H](CCC(=O)O)NC(=O)[C@@H]1CCCN1)C(C)C)C(=O)N[C@@H](C)C(=O)O [compound 586] |
|  | 0.506 | 3.13 | 4.74 | 0 | 1.01 | 14.4 | 1.11 | CC(C)C[C@H](NC(=O)CNC(=O)[C@H](CCC(=O)O)NC(=O)CNC(=O)[C@@H](NC(=O)[C@H](CS)NC(=O)[C@H](CCC(=O)O)NC(=O)[C@@H](N)CC(=O)O)C(C)C)C(=O)N[C@@H](C)C(=O)O [compound 587] |
|  | 2.15 | 16.3 | > 10 | 0 | 10.3 | 6.24 | 1.49 | CC(C)[C@H](NC(=O)[C@H](CS)NC(=O)[C@H](CCC(N)=O)NC(=O)[C@H](CC(=O)O)NC(=O)[C@H](C)NC(=O)[C@H](CCC(=O)O)NC(=O)[C@@H]1CCCN1)C(=O)N[C@@H](C)C(=O)N[C@@H](CS)C(=O)N[C@@H](C)C(=O)O [compound 590] |
|  | 3.64 | 3.6 | 2.96 | 0 | 9.18 | 6.75 |  | CSCC[C@H](NC(=O)[C@H](CC(=O)O)NC(=O)[C@H](CC(=O)O)NC(=O)[C@H](CC(=O)O)NC(=O)[C@H](CCC(=O)O)NC(=O)[C@@H](N)CC(C)C)C(=O)NCC(=O)N[C@@H](CC(=O)O)C(=O)N[C@@H](CC(C)C)C(=O)N[C@H](C(=O)O)C(C)C [compound 594] |
|  | 1.4 | > 10 | > 10 | 0 | 10.2 | 2.33 | 7.16 | CC(C)C[C@H](NC(=O)[C@@H](NC(=O)[C@H](CCCCN)NC(=O)[C@@H]1CCCN1C(=O)[C@H](CCCNC(=N)N)NC(=O)[C@H](CCC(=O)O)NC(=O)[C@@H](N)CC(C)C)[C@@H](C)O)C(=O)N[C@@H](CO)C(=O)N1CCC[C@H]1C(=O)NCC(=O)O [compound 595] |
|  | 12.1 | > 10 | 14.7 | 0 | > 10 |  | > 10 | CC(C)C[C@H](NC(=O)[C@H](Cc1ccc(O)cc1)NC(=O)[C@H](CCC(=O)O)NC(=O)[C@@H]1CCCN1C(=O)[C@H](CC(N)=O)NC(=O)[C@H](CCC(=O)O)NC(=O)[C@@H](N)C(C)C)C(=O)O [compound 596] |
|  | 5.78 | > 10 | > 10 | 0 | 7.44 | 9.02 | 15.1 | CC(C)C[C@H](NC(=O)[C@H](Cc1ccc(O)cc1)NC(=O)[C@H](CCC(=O)O)NC(=O)[C@@H]1CCCN1)C(=O)N[C@H](C(=O)N1CCC[C@H]1C(=O)N[C@@H](CCC(N)=O)C(=O)NCC(=O)NCC(=O)N[C@@H](C)C(=O)O)[C@@H](C)O [compound 597] |
